The text below walks through data of PMC10050189, “Alpha 2-macroglobulin acts as a clearance factor in the lysosomal degradation of extracellular misfolded proteins” (Scientific Reports, 2023).

This experiment has as its target T1, α2M–mCherry–sfGFP–His (human (cDNA from HepG2), UniProt P01023 24-1474).
T1 construct: alpha 2-macroglobulin (α2M), cDNA amplified from HepG2 total cDNA; Tetramer with an intact thiol ester by native-PAGE and heat fragmentation; also called α2M–RG; α2M–RFP–GFP–His; source: purified from conditioned medium (Ni–NTA); not shown: mCherry, C-terminal, kept; sfGFP, C-terminal, kept
T1 sequence (looked up): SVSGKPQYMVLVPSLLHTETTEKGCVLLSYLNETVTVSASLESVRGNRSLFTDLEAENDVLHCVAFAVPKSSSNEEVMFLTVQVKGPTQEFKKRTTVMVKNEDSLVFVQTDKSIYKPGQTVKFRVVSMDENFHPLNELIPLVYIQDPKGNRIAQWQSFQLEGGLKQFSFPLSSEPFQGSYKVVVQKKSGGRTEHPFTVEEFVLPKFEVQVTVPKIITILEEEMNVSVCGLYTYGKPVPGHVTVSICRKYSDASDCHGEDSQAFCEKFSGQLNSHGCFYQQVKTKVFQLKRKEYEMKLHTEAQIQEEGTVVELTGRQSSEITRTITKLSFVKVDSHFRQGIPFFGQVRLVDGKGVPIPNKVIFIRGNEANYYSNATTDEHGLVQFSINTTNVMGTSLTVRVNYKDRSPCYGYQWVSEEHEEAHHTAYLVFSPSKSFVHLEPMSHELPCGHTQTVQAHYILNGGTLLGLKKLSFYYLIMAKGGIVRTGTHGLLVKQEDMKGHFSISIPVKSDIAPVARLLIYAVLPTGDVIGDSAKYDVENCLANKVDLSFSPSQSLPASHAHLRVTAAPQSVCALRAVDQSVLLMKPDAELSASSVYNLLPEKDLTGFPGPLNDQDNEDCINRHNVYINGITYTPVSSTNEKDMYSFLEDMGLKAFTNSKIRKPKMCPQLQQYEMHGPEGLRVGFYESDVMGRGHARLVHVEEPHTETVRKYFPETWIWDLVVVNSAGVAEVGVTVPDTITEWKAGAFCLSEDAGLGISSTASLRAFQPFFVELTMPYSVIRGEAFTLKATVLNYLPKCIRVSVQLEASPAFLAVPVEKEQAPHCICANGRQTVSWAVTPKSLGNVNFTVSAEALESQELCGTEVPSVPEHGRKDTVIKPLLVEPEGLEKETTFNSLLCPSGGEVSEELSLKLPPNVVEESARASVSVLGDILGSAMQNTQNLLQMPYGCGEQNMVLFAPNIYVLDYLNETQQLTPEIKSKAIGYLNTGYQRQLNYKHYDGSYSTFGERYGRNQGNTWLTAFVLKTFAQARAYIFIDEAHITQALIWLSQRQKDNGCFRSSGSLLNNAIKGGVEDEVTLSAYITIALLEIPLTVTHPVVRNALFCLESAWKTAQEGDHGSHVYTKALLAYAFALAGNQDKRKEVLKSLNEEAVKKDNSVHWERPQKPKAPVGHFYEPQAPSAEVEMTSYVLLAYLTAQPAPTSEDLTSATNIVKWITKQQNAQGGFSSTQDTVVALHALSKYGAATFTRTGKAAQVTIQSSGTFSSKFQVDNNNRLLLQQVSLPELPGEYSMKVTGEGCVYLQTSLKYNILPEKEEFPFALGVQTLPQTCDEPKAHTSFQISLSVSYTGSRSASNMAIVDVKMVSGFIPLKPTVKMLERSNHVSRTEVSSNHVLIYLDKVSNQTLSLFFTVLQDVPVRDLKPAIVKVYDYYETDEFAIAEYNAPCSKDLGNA
Kind of experiment: co-IP; purified α2M–RG (0.1 μM) mixed with purified substrate, pre-incubated at 50 °C (heat stress) or 4 °C for 1 h; anti-GFP (GFP-nanobody) sepharose 2 h at 4 °C, washed four times with PBS. The following applies: both partners purified.

B1: His–ALFA–3C–PSMD5 (natural protein, human, UniProt Q16401 1-504, looked up)
chain: MAAQALALLREVARLEAPLEELRALHSVLQAVPLNELRQQAAELRLGPLFSLLNENHREKTTLCVSILERLLQAMEPVHVARNLRVDLQRGLIHPDDSVKILTLSQIGRIVENSDAVTEILNNAELLKQIVYCIGGENLSVAKAAIKSLSRISLTQAGLEALFESNLLDDLKSVMKTNDIVRYRVYELIIEISSVSPESLNYCTTSGLVTQLLRELTGEDVLVRATCIEMVTSLAYTHHGRQYLAQEGVIDQISNIIVGADSDPFSSFYLPGFVKFFGNLAVMDSPQQICERYPIFVEKVFEMIESQDPTMIGVAVDTVGILGSNVEGKQVLQKTGTRFERLLMRIGHQSKNAPVELKIRCLDAISSLLYLPPEQQTDDLLRMTESWFSSLSRDPLELFRGISSQPFPELHCAALKVFTAIANQPWAQKLMFNSPGFVEYVVDRSVEHDKASKDAKYELVKALANSKTIAEIFGNPNYLRLRTYLSEGPYYVKPVSTTAVEGAE
notes: 26S proteasome non-ATPase regulatory subunit 5 (PSMD5), cDNA amplified from HeLa total cDNA; A 3C protease site stands between the tags and the protein; no cleavage is told; Heat-stressed at 50 °C for 1 h together with the chaperone; also called recombinant PSMD5; source: E. coli BL21(DE3) LOBSTR, purified (HisPur Cobalt Resin)
In the case of B1, the binding result is “binds”.
